Measurements published in patent publication US20170247393A1, “Aminoisoxazoline Compounds as Agonists of Alpha7-Nicotinic Acetylcholine Receptors” (Forum Pharmaceuticals, Inc., priority 2015, published 2017).
Structures can show the parent of a compound that is named as a salt.

By UniProt entry, the sequences of proteins in these tests, tags left out. Residues count along the entry.
UniProt P36544, 23-502 limits assumed: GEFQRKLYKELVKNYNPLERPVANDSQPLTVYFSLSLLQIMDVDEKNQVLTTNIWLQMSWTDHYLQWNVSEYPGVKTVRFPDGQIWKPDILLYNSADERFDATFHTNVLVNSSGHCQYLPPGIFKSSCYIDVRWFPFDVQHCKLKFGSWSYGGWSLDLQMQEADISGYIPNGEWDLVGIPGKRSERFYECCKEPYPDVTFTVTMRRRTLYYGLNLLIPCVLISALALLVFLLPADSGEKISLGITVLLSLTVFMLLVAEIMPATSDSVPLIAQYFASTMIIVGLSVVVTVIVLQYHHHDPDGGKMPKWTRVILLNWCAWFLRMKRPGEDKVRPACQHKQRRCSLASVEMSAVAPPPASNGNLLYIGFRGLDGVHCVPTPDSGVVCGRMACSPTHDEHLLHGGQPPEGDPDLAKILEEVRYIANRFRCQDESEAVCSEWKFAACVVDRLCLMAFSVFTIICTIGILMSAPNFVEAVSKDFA

Biological target: human α7 nAChR (Homo sapiens, UniProt P36544)
Assay: Human α7 nAChR binding assay ([125I]-αBungarotoxin competition binding, Cerep)
Conditions: read-out: h- α7 Ki; SH-SY5Y membranes expressing human α7 nAChR, 0.05 nM [125I]-αBgt, 120 min at 37° C.

Molecule: Clc1cc2ccc(NC3=NO[C@@]4(C3)CN3CCC4CC3)cc2s1 [(R)-54, (R)—N-(2-chlorobenzo[b]thiophen-6-yl)-4H-F-azaspiroksoxazole-5,3^1-bicyclo[2.2.2]octan1-3-amine hydrochloride]
- Ki: 82.7 nM

Molecule: Fc1sc2cc(NC3=NO[C@@]4(C3)CN3CCC4CC3)ccc2c1F [(R)-55, hydrochloride]
- Ki: 170 nM

Molecule: Cc1csc2cc(NC3=NO[C@@]4(C3)CN3CCC4CC3)ccc12 [(R)-56, (R)—N -(3-methylbenzo[b]thiophen-6-yl)-4H-1′-azaspiro[isoxazole-5,3′-bicyclo[2.2.2]octan]-3-amine hydrochloride]
- Ki: 51 nM

Molecule: Cc1ccc2cc(NC3=NO[C@@]4(C3)CN3CCC4CC3)ncc2c1 [(R)-59, (R)—N-(7-methylisoquinolin-3-yl)-4H-1′-azaspiro[isoxazole-5,3′-bicyclo[2.2.2]octan]-3-amine hydrochloride]
- Ki: 145 nM

Molecule: Cc1ccc2cnc(NC3=NO[C@@]4(C3)CN3CCC4CC3)cc2c1 [(R)-60, (R)—N-(6-methylisoquinolin-3-yl)-4H-1′-azaspiro[isoxazole-5,3′-bicyclo[2.2.2]octan]-3-amine hydrochloride]
- Ki: 102 nM

Molecule: Fc1cc2cnc(NC3=NO[C@@]4(C3)CN3CCC4CC3)cc2cc1F [(R)-61, (R)—N-(6,7-difluoroisoquinolin-3-yl)-4H-1′-azaspiro[isoxazole-5,3′-bicyclo[2.2.2]octan]-3-amine hydrochloride]
- Ki: 400 nM

Molecule: Clc1cc2cnc(NC3=NO[C@@]4(C3)CN3CCC4CC3)cc2cc1Cl [(R)-62, (R)—N-(6,7-dichloroisoquinolin-3-yl)-4H-1′-azaspiro[isoxazole-5,3′-bicyclo[2.2.2]octan]-3-amine trifluoroacetate]
- Ki: 47 nM

Molecule: Clc1cc2ccc(NC3=NO[C@@]4(C3)CN3CCC4CC3)cc2o1 [(R)-63, (R)—N-(2-chlorobenzofuran-6-yl)-4H-1′-azaspiro[isoxazole-5,3′-bicyclo[2.2.2]octan]-3-amine hydrochloride]
- Ki: 54.5 nM

Molecule: Cn1ncc2ccc(NC3=NO[C@@]4(C3)CN3CCC4CC3)cc21 [(R)-64, (R)—N-(1-methyl-1H-indazol-6-yl)-4H-1′-azaspiro[isoxazole-5,3′-bicyclo[2.2.2]octan]-3-amine hydrochloride]
- Ki: 205 nM

Molecule: Cn1ncc2cc(NC3=NO[C@@]4(C3)CN3CCC4CC3)ccc21 [(R)-65, (R)—N-(1-methyl-1H-indazol-5-yl)-4H-1′-azaspiro[isoxazole-5,3′-bicyclo[2.2.2]octan]-3-amine hydrochloride]
- Ki: 410 nM

Molecule: Cc1noc2cc(NC3=NO[C@@]4(C3)CN3CCC4CC3)ccc12 [(R)-66, (R)—N -(3-methylbenzo[d]isoxazol-6-yl)-4H-1′-azaspiro[isoxazole-5,3′-bicyclo[2.2.2]octan]-3-amine hydrochloride]
- Ki: 94.5 nM

Molecule: FC(F)(F)c1cc2ccc(NC3=NO[C@@]4(C3)CN3CCC4CC3)cc2s1 [(R)-67, (R)—N-(2-(trifluoromethyl)benzo[b]thiophen-6-yl)-4H-1′-azaspiro[isoxazole-5,3′-bicyclo[2.2.2]octan]-3-amine hydrochloride]
- Ki: 425 nM

Molecule: Cc1ccc2nc(NC3=NO[C@@]4(C3)CN3CCC4CC3)ncc2c1 [(R)-70, (R)—N-(6-methylquinazolin-2-yl)spiro[4H-isoxazole-5,3^1-quinuclidine]-3-amine]
- Ki: 30 nM

Molecule: Cc1nsc2cc(NC3=NO[C@@]4(C3)CN3CCC4CC3)ccc12 [(R)-72, (R)—N-(3-methylbenzo[d]isothiazol-6-yl)-4H-1′-azaspiro[isoxazole-5,3′-bicyclo[2.2.2]octan]-3-amine hydrochloride]
- Ki: 135 nM

Molecule: Clc1coc2cc(NC3=NO[C@@]4(C3)CN3CCC4CC3)ccc12 [(R)-73-1, (R)—N-(3-chlorobenzofuran-6-yl)-4H-1′-azaspiro[isoxazole-5,3′-bicyclo[2.2.2]octan]-3-amine hydrochloride]
- Ki: 33 nM

Molecule: Cc1coc2cc(NC3=NO[C@@]4(C3)CN3CCC4CC3)ccc12 [(R)-74, (R)—N-(3-methylbenzofuran-6-yl)-4H-1′-azaspiro[isoxazole-5,3′-bicyclo[2.2.2]octan]-3-amine hydrochloride]
- Ki: 22.5 nM

Molecule: Cc1cc2cnc(NC3=NO[C@@]4(C3)CN3CCC4CC3)nc2o1 [(R)-75, (R)—N-(6-methylfuro[2,3-d]pyrimidin-2-yl)spiro[4H-isoxazole-5,3′-quinuclidine]-3-amine hydrochloride]
- Ki: 570 nM

Molecule: Clc1csc2cc(NC3=NO[C@@]4(C3)CN3CCC4CC3)ccc12 [(R)-76, (R)—N -(3-chlorobenzo[b]thiophen-6-yl)-4H-1′-azaspiro[isoxazole-5,3′-bicyclo[2.2.2]octan]-3-amine hydrochloride]
- Ki: 73 nM

Molecule: Fc1c(Cl)sc2cc(NC3=NO[C@@]4(C3)CN3CCC4CC3)ccc12 [(R)-78, (R)—N-(2-chloro-3-fluorobenzo[b]thiophen-6-yl)-4H-1′-azaspiro[isoxazole-5,3′-bicyclo[2.2.2]octan]-3-amine hydrochloride]
- Ki: 270 nM

Molecule: c1cnc2cc(NC3=NO[C@@]4(C3)CN3CCC4CC3)ccc2c1 [(R)-79, (R)—N-(quinolin-7-yl)-4H-1′-azaspiro[isoxazole-5,3′-bicyclo[2.2.2]octan]-3-amine hydrochloride]
- Ki: 180 nM

Molecule: c1cnc2ccc(NC3=NO[C@@]4(C3)CN3CCC4CC3)cc2c1 [(R)-80, (R)—N-(quinolin-6-yl)-41-1-1^1-azaspiro[isoxazole-5,3′-bicyclo[2.2.2]octan]-3-amine hydrochloride]
- Ki: 180 nM

Molecule: Fc1cc2cnc(NC3=NO[C@@]4(C3)CN3CCC4CC3)cc2cc1Cl [(R)-81, (R)—N-(6-chloro-7-fluoroisoquinolin-3-yl)-4H-1′-azaspiro[isoxazole-5,3^1-bicyclo[2.2.2]octan]-3-amine hydrochloride]
- Ki: 180 nM

Molecule: Fc1cc2cc(NC3=NO[C@@]4(C3)CN3CCC4CC3)ncc2cc1Cl [(R)-82, (R)—N-(7-chloro-6-fluoroisoquinolin-3-yl)-4H-1′-azaspiro[isoxazole-5,3′-bicyclo[2.2.2]octan]-3-amine hydrochloride]
- Ki: 87 nM

Molecule: FC(F)(F)c1ccc2cnc(NC3=NO[C@@]4(C3)CN3CCC4CC3)cc2c1 [(R)-83, (R)—N-(6-(trifluoromethypisoquinolin-3-yl)-4H-1′-azaspiro[isoxazole-5,3′-bicyclo[2.2.2]octan]-3-amine hydrochloride]
- Ki: 230 nM

Molecule: Cc1cn2ccc(NC3=NO[C@@]4(C3)CN3CCC4CC3)cc2n1 [(R)-96, (R)-N-(2-methylimidazo[1,2-a]pyridin-7-yl)-4H-1′-azaspiro[isoxazole-5,3′-bicyclo[2.2.2]octan]-3-amine hydrochloride]
- Ki: 20000 nM

Molecule: Cc1cc2cnc(NC3=NO[C@@]4(C3)CN3CCC4CC3)cc2s1 [(R)-99, (R)-N-(2-methylthieno[3,2-c]pyridin-6-yl)spiro[4H-isoxazole-5,3′-quinuclidine]-3-amine hydrochloride]
- Ki: > 30000 nM

Molecule: Cc1cc2cnc(NC3=NO[C@@]4(C3)CN3CCC4CC3)cc2o1 [(R)-100, (R)-N-(2-methylfuro[3,2-c]pyridin-6-yl)spiro[4H-isoxazole-5,3′-quinuclidine]-3-amine hydrochloride]
- Ki: > 30000 nM

Molecule: Clc1cccc2nc(NC3=NO[C@]4(C3)CN3CCC4CC3)sc12 [(S)-11, (S)—N-(7-chlorobenzo[d]thiazol-2-yl)-4H-1′-azaspiro[isoxazole-5,3′-bicyclo[2.2.2]octan]-3-amine]
- Ki: 5400 nM

Molecule: N-(furo[3,2-c]pyridin-5-yl)-4H-1′-azaspiro[isoxazole-5,3′-bicyclo[2.2.2]octan]-3-amine-enantiomer1 hydrochloride
- Ki: > 30000 nM

Molecule: N-(furo[3,2-c]pyridin-5-yl)-4H-1′-azaspiro[isoxazole-5,3′-bicyclo[2.2.2]octan]-3-amine-enantiomer2 hydrochloride
- Ki: > 30000 nM
